# Data published in patent US10160972B2, “Methods and materials for treating cancer” (Mayo Foundation for Medical Education and Research, priority 2012, dated 2018).
# Test system: A498 ccRCC xenografts
# Experiment: A498 ccRCC subcutaneous xenograft study
# Details: after the first week of treatment
compound,measurement,value
CNC(=O)c1cccc(NC(=O)N2CCC(Oc3ccccc3Cl)CC2)c1 [A939572],eye observations,"increased blinking, and slight mucosal discharge from the eyes"
